Most compounds without a hit are left out; they make up all but 3.7% or so of the library.
Nrf2 activator = Nrf2 pathway activation | Potency, µM (top dose mostly 46.1 µM), actives largely listed as activators | AREc32 ARE-luciferase reporter (MCF7-derived line), luminescence, 24 h | actives 0.31% (n = 410,000); also: nearly all actives have a fitted effect of over 65% in size
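Luminescent ARE reporter assay in AREc32_Fluc cells: overnight plating at 37 deg C, 24 hr compound incubation, Steady-Glo added, 30 min RT before reading.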
miR-21 reporter = miR-21 reporter, rising signal | HeLa miR-21 FLuc reporter, luciferase, 48 h | Potency, µM (doses to about 38.3 µM) | 340,000 tested, under 10 active | AID 2288; active = well fitted rising curve with a large enough effect; inconclusive = small, poorly fitted or top-dose-only effect; inactive = no such curve, though single readings can be large or run the other way;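 note: miR-21 action dims this reporter so a rising signal means less miR-21 action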
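Luminescence from a firefly luciferase reporter carrying a miR-21 binding site downstream, stably expressed under a CMV promoter in HeLa cells that make miR-21 endogenously, reports miRNA modulation after 48 h compound exposure up to approximately 40uM final.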
Nrf2 inh = blocks Nrf2 signaling; A549 ARE-Fluc reporter, luciferase luminescence, 18-24 h; AID 504444; actives 2.1% (n = 360,000); Potency, µM (series often up to 46 µM), actives largely listed as inhibitors; also: nearly all actives have a fitted effect of over 60% in size
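Nrf2 activity is the BugLite luminescence, read 15 min after reagent at room temperature, following CellTiter-Fluor cytotoxicity readout (30 min, 37C). Compound titrations were applied for 18-24 h to 5000 A549 ARE_Fluc cells/well in 5% FBS OPTI-MEM.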
IL2 activator = IL-2 activation | IL-2 activation reporter assay, cell-based qHTS; stimulated with anti-CD3/CD4/CD28 beads; in transgenic mouse T cells | activation, % (series mostly up to about 46 µM) | actives 0.065% (n = 360,000); in the data active = activation above about 50%; inconclusive = mostly about 30% to 49%
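Unstimulated transgenic mouse T cells; 60-min compound exposure; bead-based TCR/CD4/CD28 stimulation; 18 h culture, 37 degrees C; dual fluorescence (EGFP, DsRed) plate cytometry.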
A549 tox = counter-screen for Nrf2 inhibitors: cytotoxicity in A549 cells; Potency, µM (doses to about 46 µM), usual class: inhibitors; A549 ARE-Fluc cells, CellTiter-Fluor viability, 18-24 h; AID 504648; actives 0.16% (n = 390,000)
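A549 ARE_Fluc cells in 5% FBS OPTI-MEM were exposed to compounds in concentration-response for 18-24 h at 37 deg C. Viability was read by CellTiter-Fluor fluorescence (Ex 405/Em 525) after 30 min, before the luciferase read.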
ClpP mod = qHTS Assay for Activators of ClpP. ATP-dependent Clp protease proteolytic subunit (Bacillus subtilis (strain 168)), P80244. purified B. subtilis ClpP, FRET peptide cleavage, 20 min. Potency, µM (series often up to 57.5 µM). actives 1.9% (n = 340,000); active = well fitted falling curve with a large enough effect; inconclusive = small, poorly fitted or top-dose-only effect; inactive = no such curve, though single readings can be large or run the other way; also: the source files actives as falling curves though it sought activators and does not explain the sign; nearly all actives have a fitted effect of over 65% in size
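Buffer: 100 mM Tris/HCl pH8, 100 mM KCl, 0.05% low protease BSA, 2.5% glycerol, 0.01% Tween-20. ClpP 10 microg/mL final; 20 min RT; delta FRET normalized to ADEP and DMSO controls.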
Large screens that a line does not name were inactive. Unless noted, calls follow the shape of the dose curve; as a rule, active = well fitted curve in the direction sought with a large enough effect; inconclusive = small, poorly fitted or top-dose-only effect, or another doubt; inactive = no such curve, though single readings can be large; an effect the other way counts as inactive or inconclusive.

Chains of the proteins cited; added tags and fusions are not shown.
ATP-dependent Clp protease proteolytic subunit (Bacillus subtilis (strain 168)), P80244, UniProt P80244, whole entry, looked up: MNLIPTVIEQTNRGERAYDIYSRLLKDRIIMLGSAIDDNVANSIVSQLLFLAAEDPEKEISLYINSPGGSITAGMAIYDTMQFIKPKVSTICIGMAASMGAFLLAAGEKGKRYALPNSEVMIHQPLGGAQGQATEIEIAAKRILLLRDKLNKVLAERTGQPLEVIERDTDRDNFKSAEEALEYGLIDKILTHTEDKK

COc1cc(-c2cc(-c3ccccc3)nc(SCC(=O)Nc3nccs3)c2C#N)cc(OC)c1OC	Nrf2 inh inconclusive, A549 tox inconclusive, ClpP mod 25.1µM
ClC(Cl)c1nnc(-c2ccccc2)c(-c2c[nH]c3ccccc23)n1	Nrf2 inh 10.3µM, A549 tox inconclusive, ClpP mod 25.1µM
CCn1c(=O)c(=O)[nH]c2cc(C(=O)NC3CCCc4ccccc43)ccc21 (stereo unspecified)	ClpP mod 31.6µM
CCn1c(=O)c(=O)[nH]c2cc(C(=O)NC3CC3)ccc21	ClpP mod 31.6µM
COc1cc(Cl)c(C)cc1NC(=O)Cn1cc(S(=O)(=O)N2CCC(C)CC2)c2ccccc2c1=O	none (no result: IL2 activator)
Cc1cc(NC(=O)COc2ccccc2)cc(-c2nc3ccccc3o2)c1O	none (no result: IL2 activator)
CCOc1ccc(S(=O)(=O)N2CCN(C(=O)CCOc3ccccc3C)CC2)cc1	Nrf2 inh 16.4µM (no result: miR-21 reporter)
CC(=O)c1ccc(OCCCC(=O)N2CCN(S(=O)(=O)c3ccc(C(C)C)cc3)CC2)cc1	Nrf2 inh 20.6µM (no result: miR-21 reporter)
Cc1ccc(-c2csc3ncnc(Sc4nnnn4-c4ccccc4)c23)cc1	none (no result: Nrf2 activator, miR-21 reporter, Nrf2 inh, IL2 activator, A549 tox)
CN(C(=O)c1coc(=O)c2ccccc12)c1ccc(Br)cc1	none
CN(C(=O)c1coc(=O)c2ccccc12)c1ccc(F)cc1	Nrf2 inh 23.1µM
Cc1ccc(Cn2c(CCNC(=O)C(C)C)nc3ccccc32)cc1	none (no result: IL2 activator)
C1=Cc2ccccc2/C1=C(\Cc1ccncc1)Oc1ccncc1	none (no result: Nrf2 activator, miR-21 reporter, Nrf2 inh, IL2 activator, A549 tox)
CCOC(=O)Cc1ccc(NC(=O)c2ccc(C(C)(C)C)cc2)cc1	miR-21 reporter inconclusive, Nrf2 inh 2.59µM, A549 tox inconclusive
CC(C)(C)C(=O)Nc1ccc(NC(=O)c2ccco2)nc1	miR-21 reporter inconclusive, Nrf2 inh 2.06µM
CC(C)(C)c1ccc(C(=O)Nc2ccc(NC(=O)c3ccco3)cc2)cc1	Nrf2 inh 9.2µM, A549 tox inconclusive, ClpP mod inconclusive
CCOc1ccccc1NC(=O)c1ccc(NC(=O)c2ccco2)cc1	Nrf2 inh 23.1µM
CCC1=C(c2ccc(C)cc2)S(=O)(=O)N=C1N1CCC(C(=O)Nc2ccccc2F)CC1	none (no result: IL2 activator)
COc1cccc(CNC(=O)CCCN2C(=O)CSc3c2c(C)nn3-c2ccccc2)c1	none (no result: IL2 activator)
CCCN(C(=O)c1c(C)oc2ncn(CC(C)C)c(=O)c12)c1ccccc1C	none (no result: IL2 activator)
CCOc1cc(NC(=O)c2ccco2)c(OCC)cc1NC(=O)c1cc(OC)c(OC)c(OC)c1	Nrf2 inh 18.4µM
COc1cc(NC(=O)c2ccco2)c(OC)cc1NC(=O)c1cc(OC)c(OC)c(OC)c1	none
Cc1ccc(OC(=O)COc2ccccc2)c(-n2nc3ccccc3n2)c1	ClpP mod 31.6µM
Cc1c(Cl)cccc1NC(=O)c1cc(-c2cccs2)on1	Nrf2 activator inconclusive (no result: IL2 activator)
Cc1c(Cl)cccc1NC(=O)c1cc(-c2ccco2)on1	Nrf2 activator 12.6µM, Nrf2 inh inconclusive (no result: ClpP mod)
O=C(OCC(=O)N1CCc2ccccc21)c1ccc[nH]c1=O	ClpP mod 28.2µM
O=C(OCC(=O)N1CCCc2ccccc21)c1ccccc1NCCO	ClpP mod 31.6µM (no result: miR-21 reporter)
COc1cc2[nH]c(=O)n(CCC(=O)N3CCC(N4CCCCC4)CC3)c(=O)c2cc1OC	ClpP mod 31.6µM
COc1cc2[nH]c(=O)n(CCC(=O)NCCC(C)C)c(=O)c2cc1OC	Nrf2 inh inconclusive, ClpP mod 20µM
COc1cc2[nH]c(=O)n(Cc3ccc(C(=O)N4CCC(N5CCCCC5)CC4)cc3)c(=O)c2cc1OC	none
CCOc1cc2[nH]c(=O)n(CCCCCC(=O)NC3CCCC3)c(=O)c2cc1OCC	none
COc1cc2[nH]c(=O)c(C(=O)NCCCN3CCCCC3)c(O)c2cc1OC	ClpP mod 3.55µM
CCOc1cc2[nH]c(=O)n(CCCN3CCCC3=O)c(=O)c2cc1OCC	ClpP mod 11.2µM
O=Cc1ccc(/C=C2\C=Cc3ccccc32)cc1	none (no result: Nrf2 activator, miR-21 reporter, Nrf2 inh, IL2 activator, A549 tox)
CN1CCN(CCCNC(=O)Nc2cccc3ccccc23)CC1	ClpP mod 15.8µM
COc1cc2[nH]c(=O)n(CCCCCC(=O)NCCCN3CCC(C)CC3)c(=O)c2cc1OC	ClpP mod 15.8µM
Cc1cccnc1NC(=O)Nc1cccc2ccccc12	Nrf2 activator inconclusive, ClpP mod 25.1µM
COc1ccc(CNC(=O)CCn2c(=O)[nH]c3ccccc3c2=O)cc1	ClpP mod 28.2µM
COc1ccc(CNC(=O)Nc2cccc3ccccc23)cc1	ClpP mod 31.6µM
COc1cc2[nH]c(=O)n(CCCCCC(=O)NCCCN3CCCC3=O)c(=O)c2cc1OC	ClpP mod 28.2µM
O=C(NCc1ccccc1)Nc1cccc2ccccc12	none
COc1cc2[nH]c(=O)n(CCCCCC(=O)NCCCN3CCOCC3)c(=O)c2cc1OC	ClpP mod 22.4µM
CCOc1cc2[nH]c(=O)n(Cc3ccccc3)c(=O)c2cc1OCC	ClpP mod 12.6µM
COc1cc2[nH]c(=O)n(CCCC(=O)NCCc3ccccc3)c(=O)c2cc1OC	none
CC1CCC(NC(=O)c2ccc(CS(=O)(=O)c3cccc(C(F)(F)F)c3)o2)CC1 (stereo unspecified)	Nrf2 inh inconclusive (no result: IL2 activator)
CC(C)(C)c1ccc(OCCNC(=S)Nc2ccccc2)cc1	Nrf2 inh 16.4µM, A549 tox inconclusive (no result: ClpP mod)
Cc1cc(/C=C2\C=Cc3ccccc32)cc(C)c1N	none (no result: Nrf2 activator, miR-21 reporter, Nrf2 inh, IL2 activator, A549 tox)
Cn1cc(C(=O)O)c(=O)c2cc(S(=O)(=O)N3CCOCC3)ccc21	none (no result: Nrf2 inh, IL2 activator)
CSc1ncc(C(=O)Nc2cccc(Cl)c2C)c(-c2ccccc2)n1	Nrf2 inh inconclusive (no result: IL2 activator)
COc1ccc(S(=O)(=O)N/N=C\c2ccc3c(c2)OCO3)c(OC)c1	Nrf2 inh 10.3µM
Cc1ccc(NC(=O)c2c(NC(=O)Cc3ccccc3)sc3c2CCCC3)cc1	ClpP mod 22.4µM (no result: IL2 activator)
COc1cccc(C(=O)Nc2sc3c(c2C(=O)O)CCCC3)c1	Nrf2 inh 5.8µM, A549 tox inconclusive
COc1ccc(CC(=O)Nc2sc3c(c2C(=O)Nc2ccc(C)cc2)CCCCC3)cc1	none (no result: IL2 activator)
Cc1cccc(C(=O)Nc2sc3c(c2C(=O)O)CCC3)c1	Nrf2 inh inconclusive, A549 tox inconclusive
COc1ccc(NC(=O)c2c(NC(=O)CCC(=O)O)sc3c2CCCCC3)cc1	none
COc1ccc(NC(=O)c2c(NC(=O)Cc3ccccc3)sc3c2CCCC3)cc1	Nrf2 inh inconclusive, ClpP mod 28.2µM (no result: IL2 activator)
COc1ccc(NC(=O)c2c(NC(=O)C(F)(F)F)sc3c2CCCCC3)cc1	miR-21 reporter inconclusive, Nrf2 inh 1.84µM, A549 tox inconclusive (no result: IL2 activator)
O=S(=O)(c1ccc(Br)cc1)c1nc(-c2cccs2)oc1SCc1ccc(F)cc1	none (no result: IL2 activator)

Compound activity as filed in PubChem BioAssay.
